Earlier results as cited in patent publication US20200315241A1 (Nude Nicotine, Inc., priority 2017, published 2020).

Details: Table 7; nicotine salt (organic acid); cited from earlier work
In the case of Nicotine adipate, the pKa is listed as 4.43.
For Nicotine gallate, the pKa is given as 4.4.
For Nicotine glutamate, the pKa is listed as 2.19.
For Nicotine nicotinate, the pKa is listed as 4.75.
For Nicotine prolinate, the pKa is listed as 1.99.
For Nicotine threoninate, the pKa is listed as 2.09.

Same assay, conditions: Table 7; nicotine salt (organic acid); second value; cited from earlier work
For Nicotine adipate, the pKa is listed as 5.41.
